# Yeast mating assay B: variants of the scFv Ab-14

From the AlphaSeq antibody data of Li et al. 2023 (doi:10.1038/s41467-023-39022-2), copy in the FLAb collection.

The target is the same throughout: PDVDLGDISGINAS, from the HR2 region of SARS-CoV-2 spike.

Parent scFv Ab-14: VH joined to VL by the linker GGGGSGGGGSGGGGS. Changes lie in the light chain CDRs alone.
VH: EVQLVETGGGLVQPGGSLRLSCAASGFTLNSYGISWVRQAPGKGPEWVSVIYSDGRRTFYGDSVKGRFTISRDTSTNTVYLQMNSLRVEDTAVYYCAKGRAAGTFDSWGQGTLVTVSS
VL: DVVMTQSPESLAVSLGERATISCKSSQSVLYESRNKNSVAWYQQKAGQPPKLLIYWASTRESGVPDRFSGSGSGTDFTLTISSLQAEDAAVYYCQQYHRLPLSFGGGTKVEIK

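Designed CDR sequences, proposed from the first random library and measured here. Their group label is 14L_En_HC (En: ensemble of fine-tuned language models; HC: hill climbing; a sequence that several methods proposed may carry one label only). The assay is AlphaSeq: two haploid yeast populations carry antibody and antigen on their surface. Binding brings cells together so that they mate, and sequencing counts the barcode pairs among the diploids. Each replicate has its own calibration line, from reference interactions of the BCL2 family. Mating was done six times.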

Variants are written as CDR1, CDR2 and CDR3 of the light chain (limits as in the source). Parent: KSSQSVLYESRNKNSVA, WASTRES, QQYHRLPLS. Values are log10 of the apparent Kd in nM; lower means stronger binding. "ND" means that the variant was in the library but no mating with the target was seen in that replicate; the authors take this as a sign of poor binding, and no number exists. In the paper, a design with two or fewer of six values counts as a poor binder. The range of this assay differs from that of the first round, and the authors advise against merging the two. Of ten entries with the parent sequence, four were seen in most replicates (averages 0.34 to 2.37), three in one and three in none, so single entries are noisy. Background: pairings of all light chain designs with three empty control strains gave a value in 4% of cases (median 2.64, 5th percentile 1.59). Values in that range, when seen in few replicates, are hard to tell from nonspecific mating. For each scFv, signals with the empty controls are counted beside the result, with their mean in brackets.

CDR-L1	CDR-L2	CDR-L3	log10 Kd (nM) by replicate	signal with controls
TISQSVGMTSRNKNSVA	ENSTRED	QQYDRLPLS	ND / 3.03 / ND / 2.01 / 2.36 / 2.93	2 of 18 (2.27)
KLSLFYRVETVNKNSVA	DNSTRES	QDYDRLPLS	ND / 0.82 / ND / 1.04 / 1.05 / 1.28	0 of 18
IIYESAGTLSRNTNSVA	DNSTREK	QQYDRLPLS	2.16 / 2.24 / 2.00 / 2.23 / 2.25 / 2.45	1 of 18 (3.92)
HLAQSVDLESVHKNSIA	DLMTREH	QQYHRLPLS	0.63 / 0.22 / 0.30 / -0.05 / 0.36 / 0.76	1 of 18 (2.74)
MISQSFLIGMKAKNNVA	QTSTRES	QQYDRLPLS	0.55 / 0.44 / 0.47 / 0.48 / 0.34 / 0.41	1 of 18 (3.00)
TLTQVQGMETHNKDNVA	DLSTRGS	QQYHRLPLS	0.20 / 0.11 / -0.22 / 0.07 / 0.34 / 0.43	0 of 18
HILQNMMYESRNINSVA	HQSTRED	QQYHSLPLS	ND / 1.72 / ND / ND / 2.89 / ND	0 of 18
TISQSWLIESRNKNNVA	EMTTREN	QDYDRLPLS	-0.14 / 0.27 / 0.05 / -0.13 / 0.02 / -0.21	0 of 18
KLLATVMNETRNRNNVA	HMTTRED	QQYHRLPLS	1.44 / 1.69 / 1.33 / 0.98 / 1.18 / 2.11	1 of 18 (2.41)
TLGDVTRMESTKKNSIA	DMSNRAD	QQYHRLPLS	0.19 / -0.25 / 0.11 / -0.21 / -0.21 / -0.01	0 of 18
MISDLTMYGSRNVNSVA	DLSQRGS	QQYHRLPLS	0.07 / 0.13 / -0.03 / -0.06 / -0.11 / 0.24	1 of 18 (2.79)
KISQVTEYESRNKNNVA	DLSTRGS	QDYHRLPLS	1.52 / 1.45 / 0.32 / 0.67 / 0.88 / 0.40	1 of 18 (1.50)
NISQMFFMETKNVNNVA	QTSTREQ	QDYHRLPLS	-0.80 / -0.97 / -0.67 / -0.79 / -0.69 / -0.65	0 of 18
MFSQSVMYGSFMRNSVA	QTSTREQ	QQYDRLPLS	0.23 / 0.56 / 0.37 / 0.48 / 0.58 / 0.83	2 of 18 (2.40)
MMSQMFEGLSTAKNPVA	QVSTREE	QQYHRLPLS	0.61 / 0.75 / 0.15 / 0.88 / 0.64 / 0.99	0 of 18
ILSQSVLMGSHLKNSVA	QASTRFQ	QQYHRLPLS	0.79 / 0.72 / 0.67 / 0.80 / 0.63 / 0.62	0 of 18
NISESMYYQTRNKNNIA	EMSTRER	QHYHRLPLS	0.93 / 0.44 / 0.69 / 0.45 / 0.57 / 0.58	3 of 18 (2.58)
MIAQSLRGVGRNKNSVA	NAQTRES	QHYHRLPLS	1.72 / 1.55 / 1.16 / 1.16 / 0.95 / 1.76	0 of 18
HISQMWHLESKNKNNVA	EESTRED	QSYFRLPLS	0.32 / 0.16 / 0.12 / 0.29 / 0.40 / 0.26	1 of 18 (2.09)
IISQSVLGGYHNKNSVA	QTSERGN	QQYDRLPLS	0.55 / 0.65 / 0.70 / 0.92 / 0.99 / 0.93	0 of 18
HISYSMQHLSKNKNSVA	NQQTRES	QQYHHLPLS	1.08 / ND / 1.70 / 1.41 / 1.35 / 1.66	0 of 18
KITSMWTFESHNRNNIA	EESTRED	QSYHRLPLS	1.22 / 0.51 / 0.85 / 0.71 / 0.95 / 0.76	3 of 18 (2.56)
SLMQFGGYESNAHNSIA	DLRTRES	QQYHRLPLS	ND / 0.14 / 0.65 / -0.53 / -0.59 / 1.13	0 of 18
KLREVQHVESKQKNNVA	DNSTRES	QDYHRLPLS	2.16 / 2.18 / 1.97 / 2.29 / 2.96 / 2.42	1 of 18 (4.58)
MISDMGIHDSRIQNSVA	NNSTREA	QQYDRLPLS	ND / ND / 2.91 / ND / ND / ND	1 of 18 (2.68)
KLSMLVDYMSATHSSVA	QTSTREN	QQYHRLPLS	0.19 / 0.42 / 0.47 / 0.29 / 0.24 / 0.78	1 of 18 (1.80)
TISQMTFVESKNRNNVA	EMTTREN	QDYDRLPLS	2.00 / 1.00 / 1.81 / 1.65 / 1.68 / 1.38	0 of 18
QLSGPMLLESKNKNSVA	EFSTRGS	QQYHRLPLS	1.01 / 1.39 / 0.97 / 1.67 / 2.12 / 1.39	0 of 18
KLRMLTLTGGYFKNSVA	QASTRLN	QSYHRLPLS	ND / 2.06 / 2.41 / 1.72 / 2.48 / ND	4 of 18 (1.84)
HISQSFMTESVNRNNVA	HQSTREQ	QQYDRLPLS	0.12 / 0.04 / -0.11 / 0.03 / 0.02 / 0.16	3 of 18 (2.98)

Picked from the list: the 4 lowest averages where every replicate gave a value.

CDR-L1	CDR-L2	CDR-L3	log10 Kd (nM) by replicate	signal with controls
NISQMFFMETKNVNNVA	QTSTREQ	QDYHRLPLS	-0.80 / -0.97 / -0.67 / -0.79 / -0.69 / -0.65	0 of 18
TLGDVTRMESTKKNSIA	DMSNRAD	QQYHRLPLS	0.19 / -0.25 / 0.11 / -0.21 / -0.21 / -0.01	0 of 18
TISQSWLIESRNKNNVA	EMTTREN	QDYDRLPLS	-0.14 / 0.27 / 0.05 / -0.13 / 0.02 / -0.21	0 of 18
MISDLTMYGSRNVNSVA	DLSQRGS	QQYHRLPLS	0.07 / 0.13 / -0.03 / -0.06 / -0.11 / 0.24	1 of 18 (2.79)